Measurements: patent US8268849B2, “Multifunctional Antioxidants and methods of use thereof” (priority 2007, dated 2012)

Tests used:
[1] = test system: lens opacities after whole head irradiation; settings: rat, in vivo
Description: Cataracts were induced by whole head gamma irradiation in 24 male Long Evans (150-200 g) rats. […] Because of the amount of drug required for this long-term study, the percentage of JHX-4 and JHX-8 utilized was ½ of the dose used in the diabetic study. […] Gamma radiation (6000 Curie Cobalt-60 Source, UNMC Experimental Radiation Facility) was delivered to the whole head of unanesthetized, restrained rats at a dose rate of dose 0.341 Gy/minute for a total dose of 15 Gy. Lens changes were monitored every 7 days by portable slit lamp and recorded on a scale from 0-6 with 0: Clear, 1: Posterior subcapsular haze, 2: Spokes, suture enhancement and powdery posterior subcapsular deposits, 3: Prominent posterior subcapsular punctate opacities with spokes and suture enhancement, 4: Posterior subcapsular opacity blocks appearance of retinal vessels, 5: Start cortical involvement, 6: Total lens opacity, visible with naked eye. Since whole head irradiation results in a temporary loss of salivary gland function, all rats received Nutra-Gel (Bio-Serv) with/without JHX-4 or -8 for the first 66 days. Subsequently, all rats received standard rat chow with/without JHX-4 or -8.

[2] = Chow consumption, body weight and salivary gland protection after whole head irradiation; set-up: species or system Long Evans rats; settings: rat, in vivo
Description: Cataracts were induced by whole head gamma irradiation in 24 male Long Evans (150-200 g) rats. […] Because of the amount of drug required for this long-term study, the percentage of JHX-4 and JHX-8 utilized was ½ of the dose used in the diabetic study. […] Lens changes were monitored every 7 days by portable slit lamp and recorded on a scale from 0-6 with 0: Clear, 1: Posterior subcapsular haze, 2: Spokes, suture enhancement and powdery posterior subcapsular deposits, 3: Prominent posterior subcapsular punctate opacities with spokes and suture enhancement, 4: Posterior subcapsular opacity blocks appearance of retinal vessels, 5: Start cortical involvement, 6: Total lens opacity, visible with naked eye. […] Subsequently, all rats received standard rat chow with/without JHX-4 or -8.

SMILES: CC(C)(CO)[C@@H](O)C(=O)NCCC(=O)NCCSSCCNC(=O)CCNC(=O)[C@H](O)C(C)(C)CO [Pantethine, reference compound]
- appearance of lens opacities [1]: minimal
- delay of lens PSC opacities ([1]; ip): 4 days
- delay of the average (50% in all animals) formation of PSC punctuate opacities ([1]; ip): 23 days
- body weight after irradiation [2]: significantly decreased
- chow consumption immediately after irradiation [2]: marked reduction in feeding
